Data on two substances can be found in US20260250416A1, “MUTANT OF ANTIBODY VARIABLE REGION, AND USE THEREOF” (SHENYANG PHARMACEUTICAL UNIVERSITY, priority 2022, published 2026).

The series is described as follows: Detection of free sulfhydryl groups in the antibody products using Ellman's method. It counts as physicochemical. As to conditions: DTNB, OD 412 nm, antibody 5 mg/mL. The protocol:
Ellman's method (Thermo Fisher Scientific (China) Inc.) is used in the present disclosure to detect the content of the free sulfhydryl groups in antibody products so as to select cell lines suitable for further conjugation. A 0.1M Na2HPO4 solution, a DTNB (10 mM) solution, and a cysteine standard solution with a final concentration of 0.0059 M~0.375 M were formulated. Antibody samples to be detected were also prepared at a concentration of 5 mg/mL. 250 μL 0.1M Na2HPO4 and 5 μL DTNB solutions were added into 1.5 mL EP tube containing the cysteine standard solution and the sample to be detected, vortexed and shaken to mix well and incubated for 5 min at room temperature. The OD value was detected at the wavelength of 412 nm. A standard curve was established based on the OD values, and the sulfhydryl content of the sample was calculated.
On the technique in general: In Ellman's method for cholinesterases, released thiocholine reacts with DTNB.

Turning to “HC12C: Trastuzumab scFv, heavy chain position 12 (Kabat) to cysteine; VH SEQ ID NO: 8, VL SEQ ID NO: 5”, the “the free sulfhydryl group %” value came out at 93.22%.
The value for “WT: wild-type anti-HER2 Trastuzumab single chain antibody fragment, VH SEQ ID NO: 4, VL SEQ ID NO: 5” was 3.28%.
